One molecule from patent US20240209004A1, “BORIC ACID DERIVATIVE ACTING AS Beta-LACTAMASE INHIBITOR” (TUOJIE BIOTECH (SHANGHAI) CO., LTD., priority 2021, published 2024) can be followed below.

SMILES strings stand for the structures.

The subject of data set [1] is cefepime-resistant Klebsiella pneumoniae expressing different types of β-lactamases. It is filed as cell-based. Particulars: summary in words of Test Example 3 (sentence runs over b277-b278). As to the method:
• 1) The antibiotic cefepime was diluted with a corresponding solvent to form a 12.8 mg/mL solution. • 2) QPX-7728 and compound 1-1-Na were made into 3.2 mg/mL solutions in DMSO. • 3) Test trains: cefepime-resistant Klebsiella pneumoniae (ARLG-1127 (Urine), ARLG-1195, ARLG-1196, ATCC BAA-1705, ATCC BAA-1898, ATCC BAA-1899, ATCC BAA-2343, ATCC BAA-2470) expressing different types of β-lactamases, from Eurofins Inc.
The biosafety cabinet was sterilized with ultraviolet light for 30 min. Glycerol tubes were taken out of a −80° C. freezer, and streaks were gently formed in the glycerol tubes using inoculating loops. Bacteria were inoculated onto MHIIA solid plates. The plates were incubated overnight in a 37° C. incubator.
30 μL of compound stock solution was added to column 1 of a 96-well v-bottom plate, and DMSO was added to columns 2-10. Subsequently, 15 μL was transferred from column 1 to column 2 using a pipette and well mixed gently, and then 15 μL of solution was transferred from column 2 to column 3: the serial dilution process proceeded to column 10 (200×β-lactamase inhibitor working solutions were prepared). The antibiotic was diluted with a corresponding solvent to form a 1.6 mg/mL solution.

Data set [2] is described as follows: Single intravenous administration exposure, pharmacokinetics (Test Example 4). It is filed as in vivo, ICR mice. Particulars: mice. As to the method: The compound QPX-7728 disodium salt (synthesized according to CN109415386) and compound 1-1-Na (calculated amount of free drug=weighed amount×correction factor) were accurately weighed out, dissolved first in sterile water for injection to 40 mg/mL, and then diluted with normal saline to concentrations for administration. The solutions were prepared on the day of administration and stored at 4° C.
Single intravenous injections were administered to ICR mice, which were grouped as follows. Blood was collected from the saphenous vein or the fundus venous plexus at 0.083 h, 0.25 h, 0.5 h, 1 h, 2 h, 4 h, 6 h and 12 h after administration (about 0.1 mL/time point). A biological analysis method was developed to determine plasma concentrations at different time points, and related pharmacokinetic parameters were calculated.

`O=C([O-])c1c2c(cc3c1O[B-](O)(O)[C@@H]1C[C@H]31)OCCO2.[Na+].[Na+]` [Compound 1-1-Na]: the “restore to cefepime antibacterial activity against cefepime-resistant Klebsiella pneumoniae” value in data set [1] is “significantly”. Besides, the “single intravenous administration exposure relative to that of the QPX7728 disodium salt” value in data set [2] is “about 5 times”.
